# Laboratory results published in PubChem BioAssay AID1359 (The Scripps Research Institute Molecular Screening Center, 2008).
# Sequences of proteins named here, by UniProt entry; tags and fusion partners are left off.
# UniProt P49146, whole entry, looked up: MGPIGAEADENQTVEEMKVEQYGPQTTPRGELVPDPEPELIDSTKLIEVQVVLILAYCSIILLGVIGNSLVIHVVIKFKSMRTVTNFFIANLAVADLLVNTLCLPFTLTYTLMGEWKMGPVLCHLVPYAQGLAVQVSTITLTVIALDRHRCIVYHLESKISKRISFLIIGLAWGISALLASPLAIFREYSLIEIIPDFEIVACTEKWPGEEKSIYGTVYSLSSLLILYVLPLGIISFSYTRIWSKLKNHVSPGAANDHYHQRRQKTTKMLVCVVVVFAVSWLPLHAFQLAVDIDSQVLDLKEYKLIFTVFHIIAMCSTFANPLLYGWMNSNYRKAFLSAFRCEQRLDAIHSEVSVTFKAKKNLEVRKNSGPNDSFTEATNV
# Only a part is listed here, and it is no random draw. Calls of active or inactive are those of the source. Rule as the data show it: active = activation above about 27%; inactive = the rest.
# Target: Neuropeptide Y receptor type 2 (Homo sapiens) (UniProt P49146)
# Assay: NPY-Y2 potentiators or agonists, primary screen, cell-based (AID 1359);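 also: cells stimulated with NPY near EC25 plus isoproterenol at EC100; 0% = vehicle plus submaximal agonist and 100% = vehicle plus saturating agonist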
# Settings: cells expressing NPY-Y2, potentiator/agonist read-out; at 3.6 µM; active compounds read high
row,Compound,activation
1,O=P1(Nc2ccccn2)COc2ccccc2OC1,inactive: 5.3%
2,CCOP(=O)(Nc1ccc(C)cn1)OCC,inactive: -10.7%
3,CN(C(=O)Cc1ccc(Cl)c(Cl)c1)[C@@H]1CCCC[C@H]1N1CCCC1,inactive: 3.26%
4,CC(C)/C=N\N=C(\N)N[N+](=O)[O-],inactive: -5.39%
5,CC1(CBr)Cn2c(nc3ccccc3c2=O)S1 (centres undefined),inactive: -16.1%
6,O=[As](O)(c1ccccc1Br)c1ccccc1Br,inactive: 4.37%
7,O=C(COc1ccccc1)OC1CN2CCC1CC2 (centres undefined),inactive: -5.23%
8,COP1(=S)c2c(C)nn(CCC#N)c2N=C(c2ccc(F)cc2)N1C (centres undefined),inactive: -1.16%
9,CCC(C)N(CC(C)C)C(=S)SC(NC(C)=O)C(Cl)(Cl)Cl (centres undefined),inactive: -7.78%
10,CCOC(=O)c1ccc(NC(=O)C(C)(CCl)SC)cc1 (centres undefined),inactive: 4.97%
11,Cc1cc(SC(NC(=O)c2ccccc2)C(Cl)(Cl)Cl)nc(C(C)C)n1 (centres undefined),inactive: -5.33%
12,CCOC(=O)Nc1ccc([As](=O)(O)O)c(O)c1,inactive: -13.2%
13,Cc1cc(SC(NC=O)C(Cl)(Cl)Cl)ncn1 (centres undefined),inactive: 5.21%
14,O=P(Nc1ccccn1)(c1cccc2ccccc12)c1cccc2ccccc12,inactive: 13.1%
15,O=[N+]([O-])c1ccc(Nc2ccc(Oc3ccc([N+](=O)[O-])cc3[N+](=O)[O-])cc2)c([N+](=O)[O-])c1,inactive: 19.6%
16,CCOC(=O)Nc1cccc([As](=O)(O)O)c1,inactive: 8.86%
17,Cc1ccc(OP(=O)(Nc2ccc([N+](=O)[O-])cn2)Oc2ccc(C)cc2)cc1,inactive: -7.41%
18,Cc1ccc2nc3c(c(C)c2c1)CC(C(Cl)Cl)S3 (centres undefined),inactive: -8.01%
19,O=[As](O)(c1ccc(O)cc1)c1ccccc1O,inactive: -1.02%
20,C[As](=O)(O)c1cccc(C(=O)O)c1,inactive: 3.88%
21,O=[N+]([O-])c1cc([N+](=O)[O-])c(-c2ccn[nH]2)s1,inactive: 4.91%
22,CC(C)NC(=O)NP(=O)(Oc1ccccc1)Oc1ccccc1,inactive: -2.31%
23,CCN(CC)C(=S)SC(NC=O)C(Cl)(Cl)Cl (centres undefined),inactive: 6.62%
24,ClCCSc1nnc(-c2cccnc2)o1,inactive: -5.69%
25,CC(C)c1ccc(OP(=O)(Nc2ccccn2)Oc2ccccc2F)cc1 (centres undefined),inactive: -4.03%
26,COc1cc(I)ccc1[As](=O)(O)O,inactive: 7.03%
27,COc1ccc2nc(NP(=O)(c3ccccc3)c3ccccc3)sc2c1,inactive: -6.26%
28,Cc1c2c(nc3ccccc13)SC(C(Cl)Cl)C2 (centres undefined),inactive: -2.55%
29,Cc1cc(=O)[nH]c(N[N+](=O)[O-])n1,inactive: 3.63%
